Reference: ChEMBL document CHEMBL3880411, “Multikinase inhibitors for use in the treatment of cancer” (2009)

By UniProt entry, the sequences of proteins in these tests, tags left out. Where a name states a change or a piece, a line headed by the entry shows the natural chain unless it says otherwise.
UniProt P36888, whole entry: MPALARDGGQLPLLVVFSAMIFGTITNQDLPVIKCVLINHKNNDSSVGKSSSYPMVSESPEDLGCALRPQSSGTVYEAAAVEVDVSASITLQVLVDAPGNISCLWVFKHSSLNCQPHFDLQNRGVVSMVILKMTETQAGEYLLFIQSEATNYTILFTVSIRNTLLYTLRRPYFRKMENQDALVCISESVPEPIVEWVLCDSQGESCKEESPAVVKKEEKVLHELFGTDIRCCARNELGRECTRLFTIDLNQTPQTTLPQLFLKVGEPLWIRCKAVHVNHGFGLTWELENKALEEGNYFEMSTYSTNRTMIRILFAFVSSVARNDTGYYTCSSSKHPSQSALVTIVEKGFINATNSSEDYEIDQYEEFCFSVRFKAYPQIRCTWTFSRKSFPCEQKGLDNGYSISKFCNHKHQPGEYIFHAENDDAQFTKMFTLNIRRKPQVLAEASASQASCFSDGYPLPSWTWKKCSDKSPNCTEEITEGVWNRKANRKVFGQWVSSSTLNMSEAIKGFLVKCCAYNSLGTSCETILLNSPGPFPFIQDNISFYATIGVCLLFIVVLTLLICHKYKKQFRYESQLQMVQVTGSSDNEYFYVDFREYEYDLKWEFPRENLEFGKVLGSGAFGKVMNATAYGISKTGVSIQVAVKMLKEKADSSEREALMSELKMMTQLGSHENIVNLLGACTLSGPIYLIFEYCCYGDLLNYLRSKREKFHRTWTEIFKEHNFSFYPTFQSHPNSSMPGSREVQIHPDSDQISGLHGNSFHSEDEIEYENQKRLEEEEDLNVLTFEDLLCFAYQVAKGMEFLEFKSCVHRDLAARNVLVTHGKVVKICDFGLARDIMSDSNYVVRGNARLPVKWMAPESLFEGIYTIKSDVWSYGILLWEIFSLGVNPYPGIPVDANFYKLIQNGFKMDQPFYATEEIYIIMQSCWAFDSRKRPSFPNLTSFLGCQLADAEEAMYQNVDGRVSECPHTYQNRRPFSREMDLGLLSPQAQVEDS
UniProt P06241, whole entry, looked up: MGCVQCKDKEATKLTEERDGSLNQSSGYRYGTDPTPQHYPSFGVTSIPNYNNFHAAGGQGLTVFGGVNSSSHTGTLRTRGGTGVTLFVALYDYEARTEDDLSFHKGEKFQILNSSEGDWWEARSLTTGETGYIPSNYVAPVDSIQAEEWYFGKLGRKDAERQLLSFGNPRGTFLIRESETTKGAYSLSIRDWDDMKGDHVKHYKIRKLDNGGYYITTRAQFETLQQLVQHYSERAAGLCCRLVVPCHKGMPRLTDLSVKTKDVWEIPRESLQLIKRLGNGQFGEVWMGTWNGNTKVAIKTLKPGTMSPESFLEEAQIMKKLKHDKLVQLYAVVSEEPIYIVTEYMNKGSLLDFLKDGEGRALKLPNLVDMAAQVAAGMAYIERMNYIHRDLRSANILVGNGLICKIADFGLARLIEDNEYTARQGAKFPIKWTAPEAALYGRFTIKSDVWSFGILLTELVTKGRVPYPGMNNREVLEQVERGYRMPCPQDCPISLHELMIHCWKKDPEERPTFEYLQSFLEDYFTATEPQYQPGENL
UniProt P07948: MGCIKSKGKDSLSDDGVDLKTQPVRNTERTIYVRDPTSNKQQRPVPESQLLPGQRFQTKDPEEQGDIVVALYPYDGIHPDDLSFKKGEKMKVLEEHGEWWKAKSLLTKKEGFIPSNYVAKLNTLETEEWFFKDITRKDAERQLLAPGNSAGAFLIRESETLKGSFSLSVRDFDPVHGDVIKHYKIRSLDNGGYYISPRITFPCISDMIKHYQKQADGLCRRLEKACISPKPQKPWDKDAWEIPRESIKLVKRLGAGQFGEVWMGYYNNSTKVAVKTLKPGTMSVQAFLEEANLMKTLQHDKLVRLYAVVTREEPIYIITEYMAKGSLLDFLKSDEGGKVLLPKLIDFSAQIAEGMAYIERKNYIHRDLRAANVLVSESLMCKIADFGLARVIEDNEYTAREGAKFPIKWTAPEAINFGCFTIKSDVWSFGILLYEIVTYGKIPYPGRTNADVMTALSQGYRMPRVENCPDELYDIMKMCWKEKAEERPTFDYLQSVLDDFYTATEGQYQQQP
UniProt Q16620, whole entry, looked up: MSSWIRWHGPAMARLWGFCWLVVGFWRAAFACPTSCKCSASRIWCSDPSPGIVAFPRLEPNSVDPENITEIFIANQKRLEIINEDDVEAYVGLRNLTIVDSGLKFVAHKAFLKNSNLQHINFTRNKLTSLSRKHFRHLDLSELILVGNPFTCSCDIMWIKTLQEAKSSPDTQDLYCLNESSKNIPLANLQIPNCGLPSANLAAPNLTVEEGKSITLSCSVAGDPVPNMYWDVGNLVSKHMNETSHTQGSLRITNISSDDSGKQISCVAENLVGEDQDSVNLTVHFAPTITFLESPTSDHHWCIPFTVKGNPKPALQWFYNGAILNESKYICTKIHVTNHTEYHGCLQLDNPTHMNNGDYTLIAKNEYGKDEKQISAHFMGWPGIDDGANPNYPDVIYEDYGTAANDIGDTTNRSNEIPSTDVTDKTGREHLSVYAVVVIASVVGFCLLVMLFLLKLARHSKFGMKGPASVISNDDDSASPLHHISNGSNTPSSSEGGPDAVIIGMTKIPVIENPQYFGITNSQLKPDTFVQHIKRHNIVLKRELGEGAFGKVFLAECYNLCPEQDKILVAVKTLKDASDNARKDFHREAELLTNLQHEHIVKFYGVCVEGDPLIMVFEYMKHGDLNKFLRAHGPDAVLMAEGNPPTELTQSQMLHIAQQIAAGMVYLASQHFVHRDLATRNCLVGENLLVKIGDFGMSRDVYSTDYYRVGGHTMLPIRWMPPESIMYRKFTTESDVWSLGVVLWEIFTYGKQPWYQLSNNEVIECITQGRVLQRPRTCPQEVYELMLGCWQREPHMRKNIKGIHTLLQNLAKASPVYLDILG

Experiments:
[1] = target: Proto-oncogene tyrosine-protein kinase Src (Homo sapiens) (UniProt P12931); experiment: Inhibition of human c-Src assessed as remaining activity at 0.1 uM after 40 mins in presence of [gamma33P-ATP] by scintillation counting
[2] = target: Proto-oncogene tyrosine-protein kinase Src (Homo sapiens) (UniProt P12931); experiment: Inhibition of human c-Src assessed as remaining activity at 1 uM after 40 mins in presence of [gamma33P-ATP] by scintillation counting
[3] = target: Receptor-type tyrosine-protein kinase FLT3 (Homo sapiens) (UniProt P36888); experiment: Inhibition of human Flt3 assessed as remaining activity at 0.1 uM after 40 mins in presence of [gamma33P-ATP] by scintillation counting
[4] = target: Receptor-type tyrosine-protein kinase FLT3 (Homo sapiens) (UniProt P36888); experiment: Inhibition of human Flt3 assessed as remaining activity at 1 uM after 40 mins in presence of [gamma33P-ATP] by scintillation counting
[5] = target: Tyrosine-protein kinase Fyn (Homo sapiens) (UniProt P06241); experiment: Inhibition of human Fyn assessed as remaining activity at 0.1 uM after 40 mins in presence of [gamma33P-ATP] by scintillation counting
[6] = target: Tyrosine-protein kinase Fyn (Homo sapiens) (UniProt P06241); experiment: Inhibition of human Fyn assessed as remaining activity at 1 uM after 40 mins in presence of [gamma33P-ATP] by scintillation counting
[7] = target: Tyrosine-protein kinase Lyn (Homo sapiens) (UniProt P07948); experiment: Inhibition of human Lyn assessed as remaining activity at 0.1 uM after 40 mins in presence of [gamma33P-ATP] by scintillation counting
[8] = target: Tyrosine-protein kinase Lyn (Homo sapiens) (UniProt P07948); experiment: Inhibition of human Lyn assessed as remaining activity at 1 uM after 40 mins in presence of [gamma33P-ATP] by scintillation counting
[9] = target: BDNF/NT-3 growth factors receptor (Homo sapiens) (UniProt Q16620); experiment: Inhibition of human TrkB assessed as remaining activity at 0.1 uM after 40 mins in presence of [gamma33P-ATP] by scintillation counting
[10] = target: BDNF/NT-3 growth factors receptor (Homo sapiens) (UniProt Q16620); experiment: Inhibition of human TrkB assessed as remaining activity at 1 uM after 40 mins in presence of [gamma33P-ATP] by scintillation counting

Compound: CNc1cc(O)c2c(c1)/C=C/C[C@H](O)[C@H](O)C(=O)/C=C\[C@@H](C)[C@H](C)OC2=O
- Activity [1]: 47%
- Activity [2]: 5%
- Activity [3]: 48%
- Activity [4]: 8%
- Activity [5]: 25%
- Activity [6]: 2%
- Activity [7]: 15%
- Activity [8]: 2%
- Activity [9]: 15%
- Activity [10]: 4%
